This experiment has as its target Sodium-dependent serotonin transporter (Rattus norvegicus, UniProt P31652).

Sequences of proteins named here, by UniProt entry; tags and fusion partners are left off.
UniProt P31652, whole entry: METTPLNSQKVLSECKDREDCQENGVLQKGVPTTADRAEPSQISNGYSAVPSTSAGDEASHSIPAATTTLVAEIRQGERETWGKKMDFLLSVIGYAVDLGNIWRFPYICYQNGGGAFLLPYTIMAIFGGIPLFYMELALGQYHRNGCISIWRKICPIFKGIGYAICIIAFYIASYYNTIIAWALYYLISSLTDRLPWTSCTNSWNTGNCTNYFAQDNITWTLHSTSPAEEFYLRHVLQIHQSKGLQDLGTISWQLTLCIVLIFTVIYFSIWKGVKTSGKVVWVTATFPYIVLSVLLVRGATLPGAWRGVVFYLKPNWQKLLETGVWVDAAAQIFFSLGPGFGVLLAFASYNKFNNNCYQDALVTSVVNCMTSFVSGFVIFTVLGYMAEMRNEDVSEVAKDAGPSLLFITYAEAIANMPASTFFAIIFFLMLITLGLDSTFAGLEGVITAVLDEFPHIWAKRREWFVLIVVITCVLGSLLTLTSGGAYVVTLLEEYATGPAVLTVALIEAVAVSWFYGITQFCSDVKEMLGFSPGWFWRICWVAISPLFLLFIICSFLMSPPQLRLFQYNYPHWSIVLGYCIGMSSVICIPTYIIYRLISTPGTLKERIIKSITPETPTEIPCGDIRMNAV

For the compound `COC(=O)[C@H]1[C@@H](OC(=O)c2ccccc2)C[C@@H]2CC[C@H]1N2C` [NSC_446220], the Ki (usually a dissociation constant, usually derived from enzyme kinetics or from competition with a known ligand) turned out to be 177 nM.
